Experiment [1] deals with T1, human Y4 receptor (human, UniProt P50391 1-375). Nature of the experiment: 125I-PP displacement.
Experiment [2] has as its target T1, human Y4 receptor. Nature of the experiment: 125I-PP displacement. This is another data set of the same source.

The chains behind the UniProt entries cited, without tags or fusion partners. Where a name states a change or a piece, a line headed by the entry shows the natural chain unless it says otherwise.
UniProt P50391: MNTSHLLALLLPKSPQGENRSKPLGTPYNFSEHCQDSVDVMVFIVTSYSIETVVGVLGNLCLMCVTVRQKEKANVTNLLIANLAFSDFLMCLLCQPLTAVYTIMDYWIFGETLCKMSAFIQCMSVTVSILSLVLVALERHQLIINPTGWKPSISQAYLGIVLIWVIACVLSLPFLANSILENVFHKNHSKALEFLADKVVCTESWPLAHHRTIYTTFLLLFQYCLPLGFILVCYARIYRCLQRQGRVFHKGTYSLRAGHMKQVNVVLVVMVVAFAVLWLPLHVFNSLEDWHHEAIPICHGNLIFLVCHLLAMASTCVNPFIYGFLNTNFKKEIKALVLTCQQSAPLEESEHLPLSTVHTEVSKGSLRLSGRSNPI

We go through 3 molecules from US20100279930A1 (published 2010).

Broadly, the IC50 is the concentration that inhibits the measured activity by half.

Like-named read-outs stand apart in the source and are kept apart here.

As for GAPLEPVYPGDNATPEQMAQYAADLRRYINMLTRPRY [6646], the half-inhibitory concentration (IC50) with human Y4 receptor [1] was found to be 0.23 nM. As to APLEPFYPGDNATPEELVHYYSALRRYINMLTRPRY [6847], in the experiment with human Y4 receptor [2], the 50% inhibitory concentration (IC50) came out at 0.23 nM. In other words, the sub-nanomolar range. As to APLEPVYPGDNATPEELNRYYASLRHYLNLVTRPRY [6459], in the experiment with human Y4 receptor [1], the IC50 worked out at 0.23 nM.
